Amino acid sequences for entries named in this document (tags omitted). Residues count along the entry.
UniProt P08176, 99-320: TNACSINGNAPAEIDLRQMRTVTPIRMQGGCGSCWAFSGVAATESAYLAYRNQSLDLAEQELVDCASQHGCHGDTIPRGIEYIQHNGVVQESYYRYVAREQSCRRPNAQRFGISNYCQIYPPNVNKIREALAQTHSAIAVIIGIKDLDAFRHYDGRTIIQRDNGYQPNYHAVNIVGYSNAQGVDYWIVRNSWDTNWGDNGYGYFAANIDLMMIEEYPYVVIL

According to patent US8541363B2, “Pyruvamide compounds as inhibitors of dust mite group 1 peptidase allergen and their use” (St George's Hosptial Medical School, priority 2010, dated 2013):

Biological target: Der p 1 (Dermatophagoides pteronyssinus (European house dust mite), UniProt P08176)
Assay: Der p 1 enzyme activity assay (FRET fluorogenic substrate)
Type: biochemical
Experimental: The fluorogenic substrate used for measuring Der p 1 proteolytic activity was 2-aminobenzoylvalylalanylnorleucylseryl-(3-nitro)tyrosinyl aspartamide.
Test compounds were dissolved in dry DMSO and maintained at 4° C. as stock solutions until being diluted for use in screening assays. Final concentration of DMSO in all enzymatic assays was 0.5% v/v.
Reaction mixtures were assembled in a 96-well plate format (Perkin Elmer Optiplate 96F, Perkin Elmer LAS, Seer Green, Buckinghamshire, UK) using a Perkin Elmer MultiPROBE II Plus HTS EX robot with Gripper attachment. […] Dithiothreitol (DTT, 10 μL/well, 1 mM final concentration) was then added together with 10 μL of Der p 1 dissolved at 2.5 μg/mL in reaction buffer supplemented with 1 mM DTT. […] The plate was immediately transferred to a fluorescence plate reader (Perkin Elmer Fusion Alpha-FP or Perkin Elmer Envision) equipped with a temperature-controlled carrier set at 30° C. and the reaction followed by excitation/emission at 330/420 nm.
Inhibitory activity was analysed from progress curves of reactions in the presence of a range of inhibitor concentrations.
Initial velocity in each well was converted to fractional activity by Equation 1: Fractional activity=(Initial rate at inhibitor concentration[X]/Initial rate at inhibitor concentration zero)*100 Equation 1:
Then, IC50 was determined by fitting the data of fractional activity and inhibitor concentration to a 4-parameter logistic curve, using Equation 2: V=Vmin+[Vmax−Vmin]/[1+(X/IC50)Hillslope] […] Biological Data—Der p 1 Enzyme Assay

[1] = threshold stated in text, read-out: Der p 1 IC50

## CC(C)[C@H](NC(=O)[C@H](C)NC(=O)[C@H](Cc1ccccc1)NC(=O)c1ccccc1)C(=O)C(=O)NCC(=O)N1CC[N+](C)(C)CC1 [PVA-096]
Der p 1 IC50
  IC50: < 20 nM

## CC(C)[C@H](NC(=O)[C@H](C)NC(=O)[C@@H](NC(=O)c1ccccc1)C(C)(C)C)C(=O)C(=O)NCc1ccccc1 [PVA-097]
[1]
  IC50: < 20 nM

## CC(C)[C@H](NC(=O)[C@H](C)NC(=O)[C@@H](NC(=O)C1CC[N+](C)(C)CC1)C(C)(C)C)C(=O)C(=O)NCc1ccccc1 [PVA-154]
[1]
  IC50: < 20 nM

Read-outs that look alike come from different tables or passages of the source.
